Measured values published in the SangsterLogP compilation.

Experiments:
[1] = pH 7.4
[2] = not given; remark: listed apart in the source
[3] = not given; remark: listed apart in the source
[4] = method code SF-HPLC, from DOI: 10.1021/js970291i, PMID: 9523983; conditions: pH 7.4
[5] = not given; remark: listed apart in the source
[6] = method code SF-RC, from DOI: 10.1023/a:1015913817221, PMID: 2798313; conditions: pH 7.4
[7] = method code SF-AS, from DOI: 10.1002/qsar.19830020405
[8] = not given; remark: listed apart in the source
[9] = not given; remark: listed apart in the source
[10] = not given; remark: listed apart in the source
[11] = method code SF-TN, from DOI: 10.2116/analsci.13.897; conditions: pH 2.0
[12] = not given; remark: listed apart in the source
[13] = not given; remark: listed apart in the source
[14] = not given; remark: listed apart in the source
[15] = not given; remark: listed apart in the source
[16] = not given; remark: listed apart in the source
[17] = pH 4.0
[18] = not given; remark: listed apart in the source
[19] = pH 7.3
[20] = not given; remark: listed apart in the source
[21] = not given; remark: listed apart in the source
[22] = method code SF-HPLC, from DOI: 10.1023/a:1015823315983, PMID: 1475237
[23] = not given; remark: listed apart in the source
[24] = method code SF-AS, from DOI: 10.1248/cpb.17.2558; conditions: pH 5.5
[25] = not given; remark: listed apart in the source
[26] = method code SF-AS, from DOI: 10.1139/y89-042, PMID: 2547502
[27] = method code SF-HPLC, from DOI: 10.1248/cpb.32.1929; conditions: pH 7.2
[28] = not given; remark: listed apart in the source
[29] = method code SF-HPLC, from DOI: 10.1248/bpb.16.154, PMID: 8364451
[30] = method code SF-GLC, from DOI: 10.1016/0378-4274(82)90116-3, PMID: 7090003
[31] = method code SF-TN, from DOI: 10.1007/bf00632830
[32] = pH 5.6
[33] = method code SF-RC, from DOI: 10.1182/blood.v76.11.2389.bloodjournal76112389, PMID: 2257308; conditions: pH 7.4
[34] = method code SF-HPLC, from DOI: 10.1016/j.nucmedbio.2010.03.011, PMID: 20610161; conditions: pH 7.4
[35] = method code SF-HPLC, from DOI: 10.1021/jm00109a018, PMID: 2033591; conditions: pH 7.0
[36] = method code SF-GLC,RC, from DOI: 10.1016/0048-3575(73)90050-3

NS(=O)(=O)c1cc2c(s1)S(=O)(=O)CCC2=O
logD [1]: -0.04

CC(C)(C)c1ccc(C(O)CCCN2CCC(C(O)(c3ccccc3)c3ccccc3)CC2)cc1 (configuration not stated)
logP: 5.42

Oc1ccccc1Cl
logP [2]: 2.29

O=[N+]([O-])c1ccc(CO)cc1
logP [3]: 1.31

Nc1ccn([C@H]2CC[C@@H](CO)O2)c(=O)n1
logD [4]: -1.1

OCC1CCC(n2cnc3c(O)ncnc32)O1 (configuration not stated)
logD [4]: -0.54

Cc1cc2nc3c(=O)[nH]c(=O)nc-3n(C[C@H](O)[C@H](O)[C@H](O)CO)c2cc1C
logD [5]: -1.1

NC(=O)c1ncn([C@@H]2O[C@H](CO)[C@@H](O)[C@H]2O)n1
logD [6]: -1.85

CCOc1ccc(NC(C)=O)cc1
logD ([7]; pH 7.4): 1.65

C=CCc1ccc(O)c(OC)c1
logP [8]: 2.49

CC(CN1c2ccccc2Sc2ccccc21)N(C)C (configuration not stated)
logP [9]: 4.3

NS(=O)(=O)c1cc2c(s1)C(O)CCS2 (configuration not stated)
logD [1]: 0.48

COc1ccc(-c2oc3c(CC=C(C)C)c(O[C@@H]4O[C@H](CO)[C@@H](O)[C@H](O)[C@H]4O)cc(O)c3c(=O)c2O[C@@H]2O[C@@H](C)[C@H](O)[C@@H](O)[C@H]2O[C@@H]2O[C@@H](C)[C@H](O)[C@@H](O)[C@H]2O)cc1
logP [10]: 0.24

C/C=C/C(=O)O
logD [11]: 0.71

CC(CCc1ccccc1)NCC(O)c1ccc(O)c(C(N)=O)c1 (configuration not stated)
logD [12]: 0.92

O=C1Nc2ccc(Cl)cc2C(c2ccccc2Cl)=NC1O (configuration not stated)
logP [13]: 2.37

COc1cc(Br)cc(C(=O)NC2CCN(Cc3ccc(F)cc3)CC2)c1OC
logP [14]: 3.82

CS(C)=O
logP [15]: -0.85

COc1ccc([C@@H]2Sc3ccccc3N(CCN(C)C)C(=O)[C@@H]2OC(C)=O)cc1
logD [16]: 2.1

CCCOC(=O)c1ccc(O)cc1
logD [17]: 2.89

CC(C)Cc1ccc(C(C)C(=O)O)cc1 (configuration not stated)
logD ([7]; pH 4.5): 3.28

Cc1nc(N)nc(N)c1-c1ccc(Cl)c(Cl)c1
logP [18]: 2.8

Cc1occc(=O)c1O
logD [19]: 0.09

CC(C)N(CCC(C(N)=O)(c1ccccc1)c1ccccn1)C(C)C (configuration not stated)
logP [20]: 2.71

CC1=C(CC(=O)O)c2cc(F)ccc2/C1=C\c1ccc(S(C)=O)cc1 (configuration not stated)
logP [21]: 3.29

O=C(O)[C@@H]1C[C@@H](C2CCCCC2)CN1C(=O)CP(=O)(O)CCCCc1ccccc1
logD [22]: 3.65

OCCOCCN1CCN(C(c2ccccc2)c2ccc(Cl)cc2)CC1 (configuration not stated)
logP [23]: 3.05

CC(=O)/N=c1\sc(S(N)(=O)=O)nn1C
logD [24]: 0.13

CCCCC(CC)C(=O)O (configuration not stated)
logP [25]: 2.64

CCCC(=O)Nc1ncnc2c1ncn2[C@@H]1O[C@@H]2COP(=O)(O)O[C@H]2[C@H]1OC(=O)CCC
logD [26]: -1.75

O=c1cc[nH]c(=O)[nH]1
logD [27]: -1

O=C(CCCN1CC=C(n2c(=O)[nH]c3ccccc32)CC1)c1ccc(F)cc1
logP [28]: 3.5

CC(=O)Oc1ccccc1C(=O)O
logP [29]: 1.28

NS(=O)(=O)c1cc2c(s1)C(=O)CCS2(=O)=O
logD [1]: 0.2

C=CC(=O)OCC(C)O (configuration not stated)
logP [30]: 0.35

CCNCC
logP [31]: 0.57

O=Cc1ccc(O)cc1
logD [32]: 1.35

Cc1c(O)c(=O)ccn1C
logD [33]: -0.68

O=[N+]([O-])c1nccn1CC(O)CF (configuration not stated)
logD [34]: -0.33

Nc1ncnc2c1ncn2[C@@H]1O[C@H](CO)C[C@H]1F
logD [35]: -0.18

COc1cc(Br)cc(C(=O)NC2CC3CCCC(C2)N3Cc2ccc(F)cc2)c1OC (configuration not stated)
logP [14]: 3.59

CCCCCCN
logP [36]: 1.98
